For the experiment, the target named is Serine/threonine-protein kinase PLK1 (Homo sapiens, UniProt P53350). Description: Binding affinity to […] (unknown origin) using MAGPMQS[pT]PLNGAKK tracer peptide as substrate by fluorescence polarization binding assay.

The chains behind the UniProt entries cited, without tags or fusion partners.
UniProt P53350, whole entry: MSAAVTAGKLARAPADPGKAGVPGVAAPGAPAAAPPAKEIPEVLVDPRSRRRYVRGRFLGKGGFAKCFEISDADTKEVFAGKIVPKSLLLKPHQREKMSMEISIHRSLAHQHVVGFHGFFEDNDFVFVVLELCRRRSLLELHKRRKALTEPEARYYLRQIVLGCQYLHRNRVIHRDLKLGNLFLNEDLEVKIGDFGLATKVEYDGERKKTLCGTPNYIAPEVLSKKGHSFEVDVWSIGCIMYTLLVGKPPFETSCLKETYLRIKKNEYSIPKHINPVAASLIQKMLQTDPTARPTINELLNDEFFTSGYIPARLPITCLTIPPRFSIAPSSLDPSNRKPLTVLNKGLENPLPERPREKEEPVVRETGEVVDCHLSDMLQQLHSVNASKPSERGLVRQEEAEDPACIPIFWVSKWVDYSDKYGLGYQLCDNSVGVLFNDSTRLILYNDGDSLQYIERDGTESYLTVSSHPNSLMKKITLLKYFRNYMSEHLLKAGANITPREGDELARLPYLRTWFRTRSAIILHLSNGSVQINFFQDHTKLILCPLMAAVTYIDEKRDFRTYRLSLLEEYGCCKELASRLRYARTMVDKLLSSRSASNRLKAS

Compound `CCCCCCc1ccc(C(=O)Nc2ccccc2C(=O)O)cc1` had a concentration for half-maximal inhibition (IC50) of 60.9 µM.

(Values after ChEMBL document CHEMBL5036328, “Nonpeptidic, Polo-Box Domain-Targeted Inhibitors of PLK1 Block Kinase Activity, Induce Its Degradation and Target-Resistant Cells” (J Med Chem, 2021).)
